1 substance from article PMC139967 can be followed below.

Targets include myosin-1c IQ1 (UniProt O00159); myosin-1c IQ3 (UniProt O00159); myosin-1c IQ2 (UniProt O00159).

The Kd is a measure of binding affinity in units of concentration. Regarding calmodulin (from UniProt P0DP23), the figures for the Kd with myosin-1c IQ1, with myosin-1c IQ3 and with myosin-1c IQ2 were 5 µM, 3 µM and 5 µM, respectively.
